The values that follow are results of earlier work, collected in patent US5411984A, “Water soluble analogs and prodrugs of taxol” (Virginia Tech Intellectual Properties, Inc., priority 1992, dated 1995).

The series concerns tubulin. Particulars: cited from earlier work.

`COc1cc2c(c(OC)c1OC)-c1ccc(OC)c(=O)cc1[C@@H](NC(C)=O)CC2` [colchicine]: the “effect on microtubule / tubulin polymer formation” value is on record as “prevent microtubule formation”.
